Assay results taken from publication PMC6445123 (Scientific Reports, 2019).

The chains behind the UniProt entries cited, without tags or fusion partners. Where a name states a change or a piece, a line headed by the entry shows the natural chain unless it says otherwise. A line that says so, or that is headed by a name, gives the form on record, which may keep a tag or linker. Residues count along the entry.
UniProt P55212, 194-293 limits assumed: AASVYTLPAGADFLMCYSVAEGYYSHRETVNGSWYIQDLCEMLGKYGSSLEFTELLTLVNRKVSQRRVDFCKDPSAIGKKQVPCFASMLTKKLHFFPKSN
UniProt P55212, 24-193 with tags or gaps with the stated changes limits assumed: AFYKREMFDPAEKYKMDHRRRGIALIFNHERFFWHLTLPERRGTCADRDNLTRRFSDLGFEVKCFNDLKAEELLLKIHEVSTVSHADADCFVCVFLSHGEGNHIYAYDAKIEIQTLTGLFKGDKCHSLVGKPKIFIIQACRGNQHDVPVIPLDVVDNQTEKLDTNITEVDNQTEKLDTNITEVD

Tests used:
active Casp6 (Casp6-WT) [1] = molecular target: T1, active Casp6 (Casp6-WT) (Homo sapiens, UniProt P55212, INS179NQTEKLDTNITEVD); assay: Fluorescence-based Ac-VEID-AFC cleavage assay (Casp6 activity, IC50 determination)
Method: (§1) To assess the potency of in silico hits, a fluorescence-based Ac-VEID-AFC cleavage assay was used to measure recombinant active Casp6 reaction rate in the absence or presence of 100 µM concentration of compounds. A 30% inhibition cut off was arbitrarily chosen for further investigation of putative inhibitors. […] AFC signal interference by compound intrinsic fluorescence was ruled out (Fig. S4). Casp6 inhibition was confirmed for seven compounds (C7, C13, C14, S2, S10, S11 and S13) using a colorimetric Ac-VEID-pNA cleavage assay (Table 2, Fig. S3). […] The hits had IC50 values ranging from 13.2 µM to 289 µM (Table 2).
Casp6 active sites were quantified using zVAD-FMK (N-benzyloxycarbonyl-Val-Ala-Asp-(O-methyl)-fluoromethylketone, MP Biomedicals, Santa Ana, CA, USA)[51],[64]. Casp6 activity was measured in Stennicke’s buffer (SB: 20 mM piperazine-N,N′-bis-(2-ethanesulfonic acid) pH 7.2, 100 mM NaCl, 10 mM DTT, 1 mM EDTA, 0.1% 3-[(3-cholamidopropyl)-dimethylammonio]-2-hydroxy-1-propanesulfonic acid, 10% sucrose)[65] using 40 µM Ac-VEID-AFC (Ac-Val-Glu-Ile-Asp-7-Amino-4-trifluoromethylcoumarin, Enzo Life Sciences, Farmingdale, NY, USA)[64] and 10-250 nM active site titrated Casp6. Reactions were initiated by Ac-VEID-AFC addition and followed for 20 min at 37 °C in a black clear bottom 96-well microplate (Costar, Corning, NY, USA) in Synergy H4 Hybrid instrument (BioTek, Winooski, VT, USA) with excitation/emission at 380/505 nm. Released AFC was calculated from AFC standard curve (0-25 µM). Casp6 VEIDase activity (released pmol AFC/min) was calculated from the initial linear reaction part. Ac-VEID-AFC hydrolysis initial velocities were measured with 10 nM active-site titrated Casp6 and […] Ac-VEID-AFC. Initial velocities v versus substrate concentration [S] were fit to a rectangular hyperbola using Michaelis-Menten equation in GraphPad Prism 5 (GraphPad Software, La Jolla, CA, USA).
(§2) In fluorescence-based Casp6 activity assay, 10 µM Ac-VEID-AFC was added to 20 nM Casp6 in SB with 100 μM compound and 1% dimethyl sulfoxide (DMSO), and reaction rate was measured for 20 min at 37 °C as above. Compound potency was calculated by normalising Ac-VEID-AFC cleavage rate to 1% DMSO control. In colorimetric Casp6 activity assay, 200 µM Ac-VEID-pNA (N-acetyl-Val-Glu-Ile-Asp-p-nitroanilide, Enzo Life Sciences) was added to 200 nM Casp6 in SB with 100 μM compound, and Ac-VEID-pNA cleavage rate was measured at 37 °C for 30 min in clear 96-well plate (Sartstedt, Nümbrecht, Germany) using Synergy H4 plate reader at 405 nm. Absorbance was converted to the released pNA amount based on a standard curve of 0–250 µM pNA. Cleavage rates were calculated from the linear assay phase and were normalised to 1% DMSO control. In Casp6-C163A cleavage assay, 0.5 ng/µl Casp6-WT was preincubated with 100 µM inhibitor, 5 µM Q-VD-OPh or 1% DMSO in SB (30 min, RT), followed by transfer on ice, addition of 0.5 µg/µl Casp6-C163A, and incubation (37 °C, 5, 10 and 15 min). Reactions were stopped by adding SDS-PAGE sample buffer (62.5 mM Tris pH 6.8, 2% SDS, 0.1 M DTT, 0.01% Bromphenol Blue, 10% glycerol) and heating (5 min, 95 °C). Samples (2 µl) were analysed on 15% SDS-PAGE gels, proteins were stained with Coomassie blue, and gels were de-stained with 10% acetic acid. The intensities of protein bands were quantified from scanned gels using ImageJ. The band intensity of Casp6-C163A without a prodomain was plotted against the time and the Casp6-C163A cleavage rates were calculated from the slopes of linear plots. The % activity of Casp6-WT in the presence of inhibitors was calculated relative to DMSO control.
IC50 values were determined against 20 nM Casp6 active sites in fluorescence-based Casp6 activity assay with 10 µM Ac-VEID-AFC and 1 nM-500 µM inhibitor. […]

active Casp6 (Casp6-WT) [2] = molecular target: T1, active Casp6 (Casp6-WT); assay: Casp6-C163A cleavage assay (prodomain cleavage of catalytically inactive Casp6-C163A by active Casp6); conditions: rate of Casp6-C163A prodomain cleavage vs DMSO control
Method: as §1, §2

Casp6 [3] = molecular target: T2, Casp6 (Homo sapiens, UniProt P55212, INS179NQTEKLDTNITEVD); assay: Determination of inhibition mechanism and Ki (Michaelis-Menten, Lineweaver-Burk plots)
Method: The inhibition of Casp6 activity with S10G and C13 was reversible (Fig. S5). To determine mode of inhibition, kinetic analyses were conducted on Casp6 using S10G and C13 (Fig. 4a). In the Lineweaver-Burk plot, lines of best fit converged at a single point above the x-axis and left from the y-axis, which is characteristic of noncompetitive inhibition[54] (Fig. 4b). The dissociation constant (Ki) of S10G was 1.8 µM, which was approximately 3-fold lower than C13 (Ki = 5.3 µM) (Fig. 4c).
Compounds, S10G (2.5 µM, 4.2 µM, 10 µM), and C13 (5 µM, 14 µM, 50 µM), were added to 20 nM active site titrated Casp6 and enzyme activity was measured with eight different Ac-VEID-AFC substrate concentrations (5.0 μM–200 μM) using fluorescence-based Casp6 activity assay as above. The apparent KM and Vmax values were determined through nonlinear regression analysis of Michaelis-Menten plots (v vs. [S]) using GraphPad Prism 5. The inhibition mode was determined from the pattern of converging Lineweaver-Burk plots (1/v vs. 1/[S])[54]. The dissociation constant (Ki) for Casp6-inhibitor complex was determined from the x-axis intercept (which is equal to −Ki) in the plot of Lineweaver-Burk slopes vs. inhibitor concentration. Alternatively, inhibition model and Ki were determined by global fit of kinetic data to the competitive, noncompetitive, noncompetitive (mixed) or uncompetitive inhibition models using respective equations in GraphPad Prism 5. IC50 curves for S10G and C13 against Casp6 were generated using the fluorescence-based activity assay with 5–75 µM Ac-VEID-AFC.

Casp6 [4] = molecular target: T2, Casp6; assay: Reversibility of Casp6 inhibition (pre-incubation at 10-fold IC50, rapid 100-fold dilution); conditions: recovery of activity after 60 min pre-incubation and 100-fold dilution
Method: Supplementary Figure S5. Mechanism of Casp6 inhibition with C13 and S10G. (a) Inhibition of Casp6 with C13 (left panel) and S10G (right panel) is reversible. The recovery of Casp6 activity after 60 min pre-incubation with C13 and S10G at a concentration of inhibitor equal to 10-fold the IC50 value followed by a rapid 100-fold […]
(1 picture or pasted object on this page, not shown here) […]
dilution into Casp6 activity assay solution. The control samples DMSO and Q-VD-OPh were pre-incubated and diluted in the absence of inhibitor, and in the presence of an irreversible inhibitor Q-VD-OPh, respectively. Data points represent mean ± standard error of the mean (SEM) from three independent experiments. (b) Coomassie stain of SDS-PAGE of purified recombinant WT -, L200A-, and K284A-Casp6 (left panel) expressed from a full -length Casp6 encoding construct (Fig. 1c ), and copurified LS and SS of WT -, L200A-, and K284A-LS-SS-Casp6 (right panel). FL (full-length Casp6), ΔCasp6 (Casp6 without a prodomain), LS-L (large subunit with linker), LS (large subunit), and SS (small subunit) depict different bands of Casp6. (c) Michaelis-Menten kinetic plots (top panel) and calculated KM and Vmax values (bottom panel) for Casp6-WT-LS-SS (left panel), Casp6-L200A-LS-SS (middle panel), and Casp6-K284A-LS-SS (right panel) enzymatic activity in presence of 1% DMSO (0 µM C13) or increasing doses of C13. […]

O=C(Cn1cc(C=C2C(=O)NC(=O)N(Cc3ccco3)C2=O)c2ccccc21)NCc1ccco1
% Inhibition with 100 µM compound (fluorescence assay) (active Casp6 (Casp6-WT) [1]; 100 µM compound, 10 µM Ac-VEID-AFC, 20 nM Casp6, relative to 1% DMSO control): 98.6 ± 2.4%
fold lower IC50 than S10 (active Casp6 (Casp6-WT) [1]; compared with IC50 of S10 (30.2 µM)): ~ 3.8 fold
IC50 (active Casp6 (Casp6-WT) [1]; fluorescence assay, 20 nM Casp6 active sites, 10 µM Ac-VEID-AFC): 4.2 µM
% Inhibition with 100 µM compound (Casp6-C163A cleavage assay) (active Casp6 (Casp6-WT) [2]): 99.1 ± 1.5%
fold lower Ki than C13 (Casp6 [3]): approximately 3 fold
mode of inhibition (Casp6 [3]; Lineweaver-Burk plot pattern): noncompetitive inhibition
Ki (Casp6 [3]; read-out: Ki (dissociation constant), from plot of Lineweaver-Burk slopes vs inhibitor concentration, Casp6, Ac-VEID-AFC): 1.8 µM
reversibility of Casp6 inhibition (Casp6 [4]): reversible
